Data: patent US7265130B2, “NPY Y5 antagonist” (Shionogi & Co., Ltd., priority 1999, dated 2007)

By UniProt entry, the sequences of proteins in these tests, tags left out.
UniProt Q15761, whole entry: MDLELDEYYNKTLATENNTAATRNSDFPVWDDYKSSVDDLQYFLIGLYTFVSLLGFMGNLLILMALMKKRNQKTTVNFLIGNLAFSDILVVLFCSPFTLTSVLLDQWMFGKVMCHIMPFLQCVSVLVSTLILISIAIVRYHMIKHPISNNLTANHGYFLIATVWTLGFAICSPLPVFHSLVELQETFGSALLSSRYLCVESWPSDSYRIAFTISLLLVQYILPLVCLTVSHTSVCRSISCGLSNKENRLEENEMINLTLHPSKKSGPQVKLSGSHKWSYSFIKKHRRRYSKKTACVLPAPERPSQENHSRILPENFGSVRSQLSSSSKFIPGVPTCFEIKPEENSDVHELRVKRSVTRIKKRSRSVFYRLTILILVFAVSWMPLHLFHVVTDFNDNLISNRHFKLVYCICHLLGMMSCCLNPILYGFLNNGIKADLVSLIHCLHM

Columns and labels:
[1] = target: T1, human NPY Y5 receptor (Homo sapiens, UniProt Q15761); experiment: Affinity for NPY Y5 receptor ([125I] peptide YY binding, CHO cell membranes); settings: read-out: binding IC50; inhibition of specific [125I] peptide YY binding, membranes of CHO cells expressing NPY Y5 receptor
[2] = target: T1, human NPY Y5 receptor; experiment: cAMP production inhibitory activity in CHO cells; settings: read-out: cAMP IC50; against 50 nM NPY inhibition of forskolin stimulated cAMP, CHO cells expressing human NPY Y5 receptor

Row | Structure (SMILES) | IC50 [1] [nM] | IC50 [2] [nM]
1 | CC(C)(C)S(=O)(=O)NCCCCC(=O)Nc1ccc(C(F)(F)F)cc1 | 7.8 | 39
2 | CC(C)S(=O)(=O)NCCCCC(=O)Nc1ccc2c(c1)CCC2 | 9.9 | 79
3 | CC(C)NC(=O)c1ccc(NC(=O)[C@H]2CC[C@H](NS(=O)(=O)C(C)(C)C)CC2)cc1 | 0.67 | 5.5
4 | CC(C)S(=O)(=O)NCCCCC(=O)Nc1ccc(C(F)(F)F)cc1 | 6.1 | 57
5 | CC(C)(C)S(=O)(=O)NCCCCC(=O)Nc1ccc2c(c1)CCC2 | 7 | 86
